# Reference: publication PMC4632126, “High specific selectivity and Membrane-Active Mechanism of the synthetic centrosymmetric α-helical peptides with Gly-Gly pairs” (Scientific Reports, 2015)
# Test system: human red blood cells (hRBCs)
# Test: Hemolytic activity
# Details: concentration causing 5% hemolysis of human red blood cells; about 1% hRBC in PBS, 37 °C, 1 h, OD 576 nm
structure (smiles),measurement,value
"CC[C@H](C)[C@H](NC(=O)CN)C(=O)NCC(=O)N[C@@H](C)C(=O)N[C@H](C(=O)N[C@@H](CC(C)C)C(=O)N[C@@H](CCCCN)C(=O)N[C@H](C(=O)N[C@@H](CC(C)C)C(=O)N[C@H](C(=O)N[C@H](C(=O)NCC(=O)N[C@@H](CC(C)C)C(=O)N1CCC[C@H]1C(=O)N[C@@H](C)C(=O)N[C@@H](CC(C)C)C(=O)N[C@H](C(=O)N[C@@H](CO)C(=O)N[C@@H](Cc1c[nH]c2ccccc12)C(=O)N[C@H](C(=O)N[C@@H](CCCCN)C(=O)N[C@@H](CCCNC(=N)N)C(=O)N[C@@H](CCCCN)C(=O)N[C@@H](CCCNC(=N)N)C(=O)N[C@@H](CCC(N)=O)C(=O)N[C@@H](CCC(N)=O)C(N)=O)[C@@H](C)CC)[C@@H](C)CC)[C@@H](C)O)[C@@H](C)O)C(C)C)C(C)C [Melittin, reference compound]",MHC (minimum hemolytic concentration),0.25 µM
